Results from patent publication US10053675B2, “Hydroxyphenylpyruvate dioxygenase polypeptides and methods of use” (SYNGENTA PARTICIPATIONS AG, priority 2009, dated 2018).

Chains of the proteins cited; added tags and fusions are not shown. Lines headed by an entry give the natural chain unless they say otherwise; changes in a name come on top.
UniProt A0ACD5V6K6, entry or part of it DEL109-109: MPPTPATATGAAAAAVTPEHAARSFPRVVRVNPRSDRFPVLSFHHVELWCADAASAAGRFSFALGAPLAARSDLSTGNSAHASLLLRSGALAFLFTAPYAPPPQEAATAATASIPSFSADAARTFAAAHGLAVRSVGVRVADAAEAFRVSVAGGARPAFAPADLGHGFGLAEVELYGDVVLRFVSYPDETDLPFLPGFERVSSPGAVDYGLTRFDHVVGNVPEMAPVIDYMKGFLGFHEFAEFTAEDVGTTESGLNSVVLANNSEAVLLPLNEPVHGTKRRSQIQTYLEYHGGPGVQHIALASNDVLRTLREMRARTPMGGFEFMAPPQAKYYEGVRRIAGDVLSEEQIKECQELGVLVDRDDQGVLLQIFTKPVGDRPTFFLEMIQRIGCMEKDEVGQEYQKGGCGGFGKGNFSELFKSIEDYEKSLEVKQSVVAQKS

Assays:
[1] = biological target: T1, Avena-derived HPPD SEQ ID NO: 1 (Avena sativa, UniProt A0ACD5V6K6, DEL109-109); experiment: On rate (kon, k2) of enzyme:inhibitor complex formation; type: binding; settings: 25° C.; direct radiochemical method
[2] = biological target: T1, Avena-derived HPPD SEQ ID NO: 1; experiment: biochemical; type: binding
Method: On rates (governed by an association rate constant, kon) for the formation of the enzyme:inhibitor complexes, EI and off rates (governed by a dissociation rate constant, koff) were determined by methods known in the art and essentially as described in Hawkes et al. (2001) Proc. Bright. Crop. Prot. Conf. Weeds, 2:563-568 and in PCT Publication No. WO 02/46387).
Off rates (k1 in the scheme below) were derived from exchange rate studies where either the test inhibitor, I, or its exchange partner, J were radiolabelled and the data fit according to the scheme below. As noted in Hawkes et al. (2001) Proc. Bright. Crop. Prot. Conf.
After 30 minutes the exchange reaction was initiated with addition of 100 μl 1 mM ‘cold’ structure A with thorough mixing, and, immediately, 150 μl were withdrawn and loaded onto a NAP5 column, the protein exchanged into 50 mM BisTrisPropane buffer at pH 7.0 containing 0.1M KCl by rapid (<2 min) chromatography down a NAP5 G25 Sephadex® column (GE Healthcare Ltd, Buckinghamshire UK) and the amount of ^14C bound to protein measured by Optiphase scintillant using a Tri-Carb® 2900TR scintillation counter (Perkin Elmer, Wellesley, Mass.). Further aliquots were removed and measured in the same way at various times over minutes or hours as required in order to determine the exchange kinetics. […]

CS(=O)(=O)c1ccc(C(=O)C2C(=O)CCCC2=O)c([N+](=O)[O-])c1 [Compound B, mesotrione]
On rate k2, individual experiments [1]: 62000 M⁻¹ s⁻¹
Off rate k1 at ice temperature, individual experiments ([2]; ice temperature): 1.2e-05 s⁻¹
koff ([2]; read-out: Off rate k1 at ice temperature, individual experiments, ice temperature): 1.5e-05 s⁻¹
